{
  "source": "PubChem BioAssay AID1645848",
  "settings": "buffer; pH 7.4; 6.0 h; 150.0 µM",
  "data": [
    {"smiles": "CC(=O)NC(SC(=S)N(C)C)C(Cl)(Cl)Cl", "note": "(stereo unspecified)", "values": [
      {"measurement": "solubility kinetic", "value": "> 46", "unit": "µg/mL"}
    ]}
  ]
}
